{
  "source": "ChEMBL document CHEMBL6087451",
  "about": "“Design, Synthesis, and Biological Evaluation of 2-Arylaminopyrimidine Derivatives as Dual Cathepsin L and JAK Inhibitors for the Treatment of Acute Lung Injury” (J Med Chem, 2025)",
  "key": {"HBE [1]": {"test_system": "HBE", "assay": "Anti-inflammatory activity against HBE cells assessed as inhibition of LPS-induced IL-6 level pretreated for 30 mins followed by LPS treatment for 24 hrs by ELISA", "details": "Homo sapiens, dose <= 5.0 µM, time 24.5 hrs"}, "HBE [2]": {"test_system": "HBE", "assay": "Anti-inflammatory activity against HBE cells assessed as inhibition of LPS-induced IL-8 level pretreated for 30 mins followed by LPS treatment for 24 hrs by ELISA", "details": "Homo sapiens, dose <= 5.0 µM, time 24.5 hrs"}},
  "data": [
    {"smiles": "Cc1ccc(Nc2nccc(-c3cn(C)c4ccccc34)n2)cc1N.Cl", "values": [
      {"measurement": "inhibition", "setting": "HBE [1]", "result": "Dose-dependent-effect"},
      {"measurement": "inhibition", "setting": "HBE [2]", "result": "Dose-dependent-effect"}
    ]}
  ]
}
